For one substance, KM of PT activation catalysed by rEcarin (Michaelis-Menten; rEcarin 50 nM, PT 0.2-3 uM, S-2238 0.5 mM, PBS pH 7.4, 37 C; rEcarin not saturated) results are on record in paper PMC11360484.

The assay concerns the target recombinant ecarin (rEcarin), SVMP PIII prothrombin activator from Echis pyramidum leakeyi (Echis pyramidum leakeyi).

Consider “recombinantly expressed human prothrombin (PT) (from UniProt P00734 44-622) (natural protein)”, for which the KM of PT activation catalysed by rEcarin (Michaelis-Menten; rEcarin 50 nM, PT 0.2-3 uM, S-2238 0.5 mM, PBS pH 7.4, 37 C; rEcarin not saturated) was determined as 4 µM.
